Here are results for one substance from paper PMC7923228, “Phosphoinositide 3-Kinase (PI3K) Reactive Oxygen Species (ROS)-Activated Prodrug in Combination with Anthracycline Impairs PI3K Signaling, Increases DNA Damage Response and Reduces Breast Cancer Cell Growth” (International Journal of Molecular Sciences, 2021).

The conditions of series [1]: mouse, in vivo, ip, 20 mg/kg.
The conditions of series [2]: 40% propylene glycol with 60% injectable saline; dose 20 mg/kg.

As for “ROS-induced drug release 3-(4-morpholinopyrido[3′,2′:4,5]furo[3,2-d]pyrimidin-2-yl)phenol [RIDR-PI-103]”, in series [1], the K01 stood at 2.5 h⁻¹, the V/F came out at 89 L/kg, the “apparent volume of distribution” value worked out at 89 L and the λz was found to be 0.073 h⁻¹. Moreover, the solubility in formulation result in series [2] is “soluble in solution and not a suspension”.
